Patent publication US9487488B2, “Sulfonamide compound” (MITSUBISHI TANABE PHARMA CORPORATION, priority 2012, dated 2016)

Chains of the proteins cited; added tags and fusions are not shown.
UniProt Q7Z2W7, whole entry: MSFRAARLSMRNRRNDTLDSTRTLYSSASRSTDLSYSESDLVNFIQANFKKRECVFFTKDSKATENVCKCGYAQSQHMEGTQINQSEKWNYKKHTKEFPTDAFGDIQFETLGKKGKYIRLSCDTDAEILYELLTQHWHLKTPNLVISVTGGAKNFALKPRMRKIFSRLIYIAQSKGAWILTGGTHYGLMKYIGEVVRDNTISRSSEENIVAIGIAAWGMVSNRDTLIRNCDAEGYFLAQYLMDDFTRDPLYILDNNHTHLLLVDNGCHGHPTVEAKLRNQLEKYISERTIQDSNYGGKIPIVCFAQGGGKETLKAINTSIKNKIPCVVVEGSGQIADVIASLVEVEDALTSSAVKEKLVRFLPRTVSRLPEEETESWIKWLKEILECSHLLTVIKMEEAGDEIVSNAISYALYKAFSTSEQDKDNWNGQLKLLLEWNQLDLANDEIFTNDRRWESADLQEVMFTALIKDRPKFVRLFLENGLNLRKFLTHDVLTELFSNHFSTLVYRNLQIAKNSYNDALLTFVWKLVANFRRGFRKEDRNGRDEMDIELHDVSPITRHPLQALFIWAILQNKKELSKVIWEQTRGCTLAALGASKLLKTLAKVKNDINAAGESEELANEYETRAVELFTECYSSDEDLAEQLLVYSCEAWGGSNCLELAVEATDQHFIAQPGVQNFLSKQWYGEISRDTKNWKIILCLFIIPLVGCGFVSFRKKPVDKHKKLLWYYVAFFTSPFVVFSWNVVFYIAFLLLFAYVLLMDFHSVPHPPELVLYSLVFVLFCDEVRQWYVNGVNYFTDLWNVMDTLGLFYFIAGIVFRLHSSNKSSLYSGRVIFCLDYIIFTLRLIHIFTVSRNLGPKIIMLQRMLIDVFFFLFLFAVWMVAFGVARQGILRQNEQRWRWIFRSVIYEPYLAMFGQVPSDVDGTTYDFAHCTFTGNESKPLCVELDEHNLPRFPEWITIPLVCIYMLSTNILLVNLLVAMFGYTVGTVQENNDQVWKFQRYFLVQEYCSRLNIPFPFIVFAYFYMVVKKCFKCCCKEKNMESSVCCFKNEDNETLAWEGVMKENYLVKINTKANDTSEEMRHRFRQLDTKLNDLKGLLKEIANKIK

Target: human TRPM8 (Homo sapiens (Human), UniProt Q7Z2W7)
Experiment: TRPM8 inhibition assay (menthol-induced calcium influx, FDSS)
Format: cell-based
Settings: read-out: TRPM8 Blocking Test (IC50/nmol/L)
Description: The functional activity of a test compound was determined by measuring change in intracellular calcium concentration using a calcium sensitive fluorescent dye. The change in fluorescent signal was measured by the cell imaging technology by Hamamatsu Photonics's Functional Drug Screening System (FDSS).
HEK293 cells stably expressing human TRPM8 were grown in a flask. On assay day, the culture medium was removed from the flask, and cells were washed with phosphate-buffered saline (PBS) and harvested with PBS containing 2 mmol/L of ethylenediaminetetraacetic acid disodium salt (EDTA-2Na). […] Subsequently, suspended 20,000 to 50,000 cells per well were incubated with a test compound (at varying concentrations) in each well at 37° C. for 20 minutes. Change in intracellular calcium concentration evoked by 100 μmol/L of menthol was measured for 2 minutes using FDSS. […] The concentration-response curve was generated using the average of quadruplicate wells for each data point.

With Cc1c(N(Cc2ccc(OC(F)(F)F)cc2)S(=O)(=O)c2ccc(-c3ncn[nH]3)cc2)nc(C2CC2)c2ccccc12 [Example 19] the IC50 was 3.5 nmol/L.
